# Rows were chosen to be rich in hits. Some 1.9% of all compounds tested hit in one or more screens of this group.
# UUG fidelity: alters start codon recognition fidelity in yeast; AID 602363; activity score, % at 18.7 µM; 350,000 tested, 0.13% active; S. cerevisiae UUG-firefly luciferase reporter, luminescence/redox ratio;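 active means replicate mean at a twofold rise or more, about +100% in these data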;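 further: firefly luciferase made from a UUG start codon reports start codon fidelity; reporter light over untreated wells divided by growth signal over untreated wells; some hits fall short of that in this replicate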
# ARNT TACC3 PPI: disruptors of ARNT/TACC3 protein interaction, primary screen, biochemical, AlphaScreen, single concentration. inhibition, % at 9.99 µM. 390,000 tested, 0.66% active. AlphaScreen His-ARNT PAS-B/GST-TACC3 binding, luminescence; TACC3 fragment carries E629A point mutation. Transforming acidic coiled-coil-containing protein 3 (Homo sapiens), Q9Y6A5. AID 623870, 2012;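 active = mean inhibition of replicates at least 50% and at least half of replicates each reaching 50%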;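 also: 0% = complete ARNT plus TACC3 wells and 100% = ARNT alone without TACC3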
# ERp5 inh: inhibitors of ERp5-driven insulin aggregation, primary screen, biochemical, turbidity, absorbance 650 nm, single point. Protein disulfide-isomerase A6 (Homo sapiens), Q15084. 90 min. inhibition, % at 9.99 µM. 350,000 tested, 0.05% active. AID 651711, 2012;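 active = mean replicate inhibition above about 25%, with every replicate also reaching it, limit read from the data, passing the limit was not always enough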
# PDI inh: inhibitors of human PDI, primary screen, biochemical, turbidity, single point, plate reader. PDI insulin aggregation turbidity, A650, 90 min. inhibition, % at 10 µM. Protein disulfide-isomerase (Homo sapiens), P07237. 350,000 tested, 0.052% active;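 active = mean inhibition across replicates of 30% or more, whatever share of single replicates reach that level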
# FGF22 binding: binders of human FGF22 protein, primary screen, FGF22 synaptogenesis inhibitor project, biophysical, thermal shift, single point. activity (Tm shift, normalised), % at 9.99 µM. 340,000 tested, 1.5% active. recombinant FGF22 thermal shift, SYPRO orange fluorescence; percent of sucrose octasulfate shift, DMSO zero. AID 651658, 2012;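 active = mean Tm shift, scaled 0 neutral to 100 positive control, at about 1.3% or above, every replicate too, limit read from the data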
# PglD DTNB: C. jejuni PglD acetyltransferase inhibitors, primary screen, biochemical, DTNB colorimetric, single point | inhibition, % at 12.5 µM | UDP-N-acetylbacillosamine N-acetyltransferase PglD (Campylobacter jejuni) | purified PglD enzyme, DTNB colorimetric CoA detection | AID 602405, 2012 | 360,000 tested, 0.098% active; in the data active = inhibition above about 16%, passing the limit was not always enough
# Starred values were filed as active, the others as inactive; nt = no result given.
# The opening three entries as a preview:
no. | Structure | UUG fidelity | FGF22 binding | ERp5 inh | ARNT TACC3 PPI | PDI inh | PglD DTNB
1 | CC(C)(C)c1ccc(C#C[C@@H]2C=C[C@H](O)[C@@H](COC(=O)Nc3ccccc3)O2)cc1 | nt | 44.5* | 0.4 | nt | nt | nt
2 | CCNC(=O)OC[C@H]1O[C@H](C#Cc2ccc(C(C)(C)C)cc2)C=C[C@H]1O | nt | 40.9 | -1.6 | nt | nt | nt
3 | Oc1cccc2ccc(/C=C/c3ccccc3Cl)nc12 | 2.5 | 0.0 | -0.9 | 5.9 | -5.2 | -3.1

# This part in full, from the first entry:
no. | Structure | UUG fidelity | FGF22 binding | ERp5 inh | ARNT TACC3 PPI | PDI inh | PglD DTNB
1 | CC(C)(C)c1ccc(C#C[C@@H]2C=C[C@H](O)[C@@H](COC(=O)Nc3ccccc3)O2)cc1 | nt | 44.5* | 0.4 | nt | nt | nt
2 | CCNC(=O)OC[C@H]1O[C@H](C#Cc2ccc(C(C)(C)C)cc2)C=C[C@H]1O | nt | 40.9 | -1.6 | nt | nt | nt
3 | Oc1cccc2ccc(/C=C/c3ccccc3Cl)nc12 | 2.5 | 0.0 | -0.9 | 5.9 | -5.2 | -3.1
4 | O/N=C/c1ccc2cccc(O)c2n1 | 5.4 | 0.0 | -1.8 | 57.2* | -0.5 | -5.9
5 | Oc1cccc2ccc(/C=C/c3c(F)cccc3Cl)nc12 | nt | 43.1* | 1.5 | -4.1 | -4.0 | nt
6 | N#CC1=C(SCC(=O)NC23CC4CC(CC(C4)C2)C3)NC(=O)C(C#N)C12CCCCC2 (stereo not given) | -15.3 | 1.9* | 4.0 | -11.0 | 25.8 | -0.6
7 | CC(C)N(Cc1cn(C)nc1-c1cccc(Cl)c1)Cc1nccn1C | 8.5 | 43.3* | 3.0 | 1.7 | -4.1 | -2.4
8 | C/C(=N\N1CCN(C)CC1)c1ccc(OC(F)F)cc1 | nt | 42.9* | 0.6 | 16.7 | -4.3 | nt
9 | C[C@@H](O)C#Cc1cnc2c(c1)C(=O)N([C@@H](C)CO)C[C@H](C)[C@H](CN(C)C(=O)Nc1ccc(F)cc1)O2 | -3.9 | 0.0 | 8.5 | -7.2 | nt | -2.7
10 | O=C(/C=C/c1ccc(O)cc1)c1ccc(O)cc1O | -6.6 | 0.0 | 5.3 | 3.8 | 41.0* | 0.6
11 | Cc1cc(OC(=O)c2ccc(S(=O)(=O)N3CCCC3)cc2)c([N+](=O)[O-])c(=O)[nH]1 | nt | 42.9* | 4.1 | nt | -4.2 | nt
12 | Cc1ccc(NC2C(=O)NC(=O)NC2=O)cc1 | -14.5 | -0.2 | -10.5 | 40.7* | 3.1 | 1.3
13 | CN(C)CC(=O)Nc1ccc(S(N)(=O)=O)cc1 | -23.3 | nt | nt | -6.0 | 5.6 | 3.7
14 | CCN(CC)C(=S)SCC(=O)Nc1ccc(S(N)(=O)=O)cc1 | -9.5 | 43.4* | -2.7 | 4.7 | 2.4 | -2.4
15 | COc1ccc(NS(=O)(=O)c2cc(NC(=O)c3cc(=O)c4ccccc4o3)ccc2OC)cc1 | nt | 43.4* | 2.3 | -5.1 | 1.0 | nt
16 | C[C@H](CO)N1C[C@H](C)[C@@H](CN(C)C)Oc2ncc(-c3ccc(C(=O)N(C)C)cc3)cc2C1=O | -4.4 | -0.1 | 0.0 | -6.1 | nt | -4.9
17 | COC(=O)c1c(C)[nH]c(C(=O)CC#N)c1C | -6.8 | 43.3* | -1.1 | 2.5 | -0.1 | 1.2
18 | COC(=O)c1c(C)[nH]c(C(=O)CN2CCOCC2)c1C | -4.1 | nt | nt | -4.3 | 1.7 | 1.5
19 | C[C@@H]1CN([C@@H](C)CO)S(=O)(=O)c2ccc(-c3ccc(C(=O)N(C)C)cc3)cc2O[C@@H]1CN(C)C(=O)C1CCC1 | nt | 0.2 | 4.7 | -5.8 | nt | -8.5
20 | N#Cc1cnn(-c2cccc(Cl)c2)c1N | nt | 43.3* | 0.9 | -0.9 | -0.1 | nt
21 | Cc1cccc(-n2ncc(C#N)c2N)c1 | -8.8 | nt | nt | 21.4 | -5.7 | -9.2
22 | O=C(NCCc1ccc(Cl)cc1)c1ccc2nc[nH]c2c1 | nt | 43.1* | 2.7 | -1.1 | -3.8 | nt
23 | O=C(NCCc1ccc(Cl)cc1Cl)c1ccc2nc[nH]c2c1 | -26.4 | -0.1 | 21.1 | 2.1 | -5.9 | -9.0
24 | COc1ccc2c3c([nH]c2c1)[C@@H](CO)N(C(=O)c1cccnc1)CC31CCN(C(=O)NC(C)C)CC1 | nt | 0.1 | nt | nt | nt | nt
25 | O=c1[nH][nH]c(-c2ccccc2)c1C=Nc1ccc(F)cc1F | -3.0 | 43.9* | -0.3 | 28.1 | -6.1 | -0.6
26 | CO[C@@H]1CN(C)C(=O)c2cc(NC(=O)Nc3c(C)noc3C)ccc2OC[C@H](C)N(CC2CC2)C[C@H]1C | -5.2 | 0.1 | 4.0 | -22.7 | nt | -2.3
27 | COc1ccc(C2=C/C(=C\c3ccc(OC(C)=O)cc3)C(=O)O2)cc1 | -14.5 | 42.4 | -8.1 | 2.3 | 1.5 | -0.4
28 | CC(=O)Oc1ccc(C2=Cc3ccc(OC(C)=O)cc3OC2C)cc1 (stereo not given) | -0.1 | 43.4* | -1.7 | -6.2 | -8.7 | 4.5
29 | c1ccc(-c2ccccc2OCc2nnc3n2CCC3)cc1 | nt | 42.9* | 1.7 | 3.8 | 4.9 | nt
30 | FC(F)(F)c1cccc(OCc2nnc3n2CCC3)c1 | nt | 0.3 | 0.4 | -0.9 | -0.5 | nt
31 | CC(C)NC(=O)N(C)C[C@H]1Oc2c(NC(=O)Nc3ccc(C(F)(F)F)cc3)cccc2C(=O)N([C@@H](C)CO)C[C@H]1C | 15.2 | nt | -0.1 | -5.1 | nt | 3.3
32 | O=C(O)c1cc(N=Nc2c(O)ccc3ccccc23)cc(C(=O)O)c1 | nt | nt | 2.1 | nt | -3.8 | nt
33 | O=C(O)c1ccc(N=Nc2c(O)ccc3ncccc23)cc1 | -46.1 | -0.2 | -0.6 | 61.9* | -7.7 | 0.4
34 | COc1cccc(-c2ccc3n(c2=O)C[C@H]2[C@H](CO)[C@@H](C(=O)N4CCOCC4)N[C@@H]32)c1 | nt | -0.4 | -2.0 | 21.1 | nt | 0.3
35 | Cc1ccc(CC(=O)NCc2cccnc2)cc1 | nt | 44.0* | 5.6 | nt | nt | nt
36 | NC(=S)NCc1cccnc1 | -19.3 | 43.3* | -2.6 | nt | -4.4 | -1.6
37 | NNC(=S)NCc1cccnc1 | nt | nt | nt | 1.0 | 8.5 | nt
38 | Cc1ccc(CSCC(=O)NCc2cccnc2)cc1 | nt | 0.2 | 1.5 | -2.1 | 4.5 | nt
39 | C[C@H]1CN([C@@H](C)CO)C(=O)Cc2cc(NC(=O)Nc3ccc(F)cc3)ccc2O[C@H]1CN(C)S(=O)(=O)c1cccs1 | 13.7 | -0.2 | 6.4 | 22.5 | nt | -3.6
40 | CCCCC(CC)C(=O)Nc1cccc(SC)c1 (stereo not given) | nt | nt | -5.1 | -4.0 | 0.8 | nt
41 | CCCCC(CCCCl)C(=O)Nc1ccccc1 (stereo not given) | nt | 43.2* | -1.8 | nt | -1.7 | nt
42 | COc1ccc(NC(=O)Nc2ccc3c(c2)C(=O)N([C@@H](C)CO)C[C@@H](C)[C@@H](CN(C)S(=O)(=O)c2ccc(C)cc2)O3)cc1 | 8.5 | -0.5 | 2.5 | 10.5 | nt | 3.2
43 | COc1cc(/C=C/C(=O)OCC(=O)NCCc2ccccc2)cc(OC)c1OC | nt | 43.6* | -2.3 | -11.1 | -1.9 | nt
44 | CC(OC(=O)c1ccncc1)C(=O)Nc1cccc([N+](=O)[O-])c1 (stereo not given) | nt | 43.2* | -8.2 | -0.6 | -12.6 | nt
45 | CN1C(=O)c2ccccc2CC12c1ccccc1C(=O)N2C (stereo not given) | -5.7 | 43.4* | 0.0 | nt | 0.5 | -1.1
46 | CC1(C)Cc2ccccc2C(=O)N1 | nt | nt | nt | -5.2 | 17.4 | nt
47 | Cc1ccc(OCc2ccc(Br)cc2)c([N+](=O)[O-])n1 | nt | 45.3* | -2.6 | nt | nt | nt
48 | O=C(C1CCCC1)N1CC(=O)N2[C@H](C1)[C@@H](c1ccc(C#CCc3ccccc3)cc1)[C@@H]2CO | nt | nt | 2.7 | nt | nt | nt
49 | Nc1ncnc(Sc2ccc(Cl)cc2)c1[N+](=O)[O-] | nt | 0.3 | 1.1 | 48.7* | -2.0 | nt
50 | Cc1ccc(Sc2ncnc(N)c2[N+](=O)[O-])cc1 | nt | nt | nt | -3.8 | -8.3 | nt

# From no. 49 to 50, copied from above:
no. | Structure | UUG fidelity | FGF22 binding | ERp5 inh | ARNT TACC3 PPI | PDI inh | PglD DTNB
49 | Nc1ncnc(Sc2ccc(Cl)cc2)c1[N+](=O)[O-] | nt | 0.3 | 1.1 | 48.7* | -2.0 | nt
50 | Cc1ccc(Sc2ncnc(N)c2[N+](=O)[O-])cc1 | nt | nt | nt | -3.8 | -8.3 | nt

# From PubChem
